Measurements reported in paper PMC5932218 (Structure (London, England : 1993), 2018).

Target: calmodulin (CaM) (Homo sapiens, UniProt P0DP25)
Assay: Isothermal titration calorimetry of CaM binding to NaV IG peptides
[1] = ITC, 20 mM TRIS, 50 mM NaCl, 1 mM CaCl2, pH 7.4, triplicate, ± SD

CC[C@H](C)[C@H](NC(=O)[C@H](CC(=O)O)NC(=O)[C@H](CCC(N)=O)NC(=O)[C@H](CO)NC(=O)CNC(=O)[C@@H]1CCCN1C(=O)CN)C(=O)N[C@@H](Cc1ccccc1)C(=O)N[C@@H](CCSC)C(=O)N[C@H](C(=O)N[C@@H](CCC(=O)O)C(=O)N[C@@H](CCC(=O)O)C(=O)N[C@@H](CCC(N)=O)C(=O)N[C@@H](CCCCN)C(=O)N[C@@H](CCCCN)C(=O)N[C@@H](Cc1ccc(O)cc1)C(=O)N[C@@H](Cc1ccc(O)cc1)C(=O)N[C@@H](CC(N)=O)C(=O)N[C@@H](C)C(=O)N[C@@H](CCSC)C(=O)N[C@@H](CCCCN)C(=O)N[C@@H](CCCCN)C(=O)N[C@@H](CC(C)C)C(=O)NCC(=O)N[C@@H](CO)C(=O)N[C@@H](CCCCN)C(=O)N[C@@H](CCCCN)C(=O)N1CCC[C@H]1C(=O)N[C@@H](CCC(N)=O)C(=O)N[C@@H](CCCCN)C(=O)N1CCC[C@H]1C(=O)N[C@H](C(=O)N1CCC[C@H]1C(=O)N[C@@H](CCCNC(=N)N)C(=O)N1CCC[C@H]1C(=O)N[C@@H](C)C(=O)N[C@@H](CC(N)=O)C(=O)N[C@@H](CCCCN)C(=O)N[C@@H](Cc1ccccc1)C(=O)N[C@@H](CCC(N)=O)C(=O)NCC(=O)N[C@@H](CCSC)C(=O)N[C@H](C(=O)N[C@@H](Cc1ccccc1)C(=O)N[C@@H](CC(=O)O)C(=O)N[C@@H](Cc1ccccc1)C(=O)N[C@H](C(=O)N[C@H](C(=O)N[C@@H](CCCCN)C(=O)N[C@@H](CCC(N)=O)C(=O)N[C@H](C(=O)O)C(C)C)[C@@H](C)O)C(C)C)C(C)C)[C@@H](C)CC)[C@@H](C)O [NaV 1.2]
stoichiometry (ITC, 20 mM TRIS, 50 mM NaCl, 1 mM CaCl2, pH 7.4, 1:1 binding model, triplicate, ± SD): 1.02 ± 0.02 | ΔH [1]: -12 ± 0.4 kcal/mol | ΔS (cal/mol•deg) [1]: −4.2 ± 1.9 cal/mol•deg | Kd (SD): 29 ± 6 nM
